DT40 TDP1 no CPT: qHTS for Inhibitors of human tyrosyl-DNA phosphodiesterase 1 (TDP1): qHTS in cells in absence of CPT. DT40 Tdp1-/- hTDP1 cells, no CPT, ATP luminescence, 48 h. Potency, µM (titrated, usually from 46.2 µM), inactives show at the top dose activity change, negative = growth inhibition, hits mostly inhibitors. hit rate 15% among 420,000. AID 686978, 2013; further: potency means the concentration at half of the fitted maximal effect; on the % scale 0 is the no-effect control and ±100 the full control effect; nearly all actives have a fitted effect of over 55% in size
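Growth kinetics read by CellTiter-Glo luminescence after ≥48 hr at 37 °C. Cells: DT40 Tdp1-/- stably carrying human TDP1, 400 per well, compound exposure in the absence of CPT (DMSO vehicle).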
uPA generation: blocks generation of uPA at the cell surface; cell surface uPA generation assay, qHTS; Potency, µM (doses to about 38.3 µM), for inactives: at the highest dose activity change, negative = inhibition, hits mostly inhibitors; hit rate 0.31% among 330,000; AID 540303; active means well fitted inhibition curve with a large enough effect; inconclusive means small, poorly fitted or top-dose-only effect; inactive means no such curve, though single readings can be large or run the other way; tested in mouse RAW 264.7 cells; further: potency means the concentration at half of the fitted maximal effect; on the % scale 0 is the no-effect control and ±100 the full control effect; nearly all actives have a fitted effect of over 55% in size
TDP1 inh: blocks human tyrosyl-DNA phosphodiesterase 1 | recombinant TDP1, AlphaScreen DNA substrate cleavage | Potency, µM (series often up to 130 µM), for inactives: at the highest dose activity change, negative = inhibition, usual class: inhibitors | hit rate 0.28% among 350,000 | AID 485290; further: potency means the concentration at half of the fitted maximal effect; on the % scale 0 is the no-effect control and ±100 the full control effect; nearly all actives have a fitted effect of over 40% in size
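Recombinant E. coli-expressed Tdp1 (1 nM) preincubated with compound 15 min at RT, then 5'-biotin/3'-phosphotyrosine-FITC DNA substrate (15 nM) added for 5 min. AlphaScreen beads (10 ug/ml) added, 10 min RT; tyrosine-FITC cleavage read as signal loss.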
miR-21 reporter: raises the signal of a miR-21 reporter | Potency, µM (doses to about 38.3 µM), for inactives: top-dose reporter change, positive = more light | HeLa miR-21 FLuc reporter, luciferase, 48 h | AID 2288 | 340,000 tested, under 10 active; active = well fitted rising curve with a large enough effect; inconclusive = small, poorly fitted or top-dose-only effect; inactive = no such curve, though single readings can be large or run the other way;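 also: % of control where 0% means no effect; miR-21 action dims this reporter so a rising signal means less miR-21 action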
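Luminescence from a firefly luciferase reporter carrying a miR-21 binding site downstream, stably expressed under a CMV promoter in HeLa cells that make miR-21 endogenously, reports miRNA modulation after 48 h compound exposure up to approximately 40uM final.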
TDP1 cell CPT: DT40-hTDP1 cell growth loss with CPT | chicken DT40 Tdp1-/-;hTDP1 cells + 20 nM CPT, ATP luminescence, 48 h | Potency, µM (titrated, usually from 46.2 µM), for the others: at the top dose activity change, negative = growth inhibition, hits mostly inhibitors | hit rate 12% among 420,000 | AID 686979; further: potency means the concentration at half of the fitted maximal effect; on the % scale 0 is the no-effect control and ±100 the full control effect; nearly all actives have a fitted effect of over 55% in size
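Chicken DT40 Tdp1-/- cells stably complemented with human TDP1 were seeded at 400 cells/well in medium containing 20 nM camptothecin, exposed to pin-transferred compounds, and grown at 37 °C for at least 48 hr. Viability was read as ATP luminescence.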
Numbers without * were called inactive; ? = inconclusive; . = not tested or not shown; + = active, no number. Compounds with a hit are over-represented: about 16% of the library has one in this group of screens. Unless noted, the call rests on the fitted dose curve; in most records, active means well fitted curve in the direction sought with a large enough effect; inconclusive means small, poorly fitted or top-dose-only effect, or another doubt; inactive means no such curve, though single readings can be large; an effect the other way counts as inactive or inconclusive.

Short forms: A = DT40 TDP1 no CPT; B = uPA generation; C = TDP1 inh; D = miR-21 reporter; E = TDP1 cell CPT
1) CCOC(=O)c1c(NC(C)=O)c2c3c(sc2n1Cc1nc(-c2cccc(C)c2)oc1C)CCCC3
  A: ? | B: . | C: -2.9% | D: -2.5% | E: 3.66µM*
2) COC(=O)c1ccc(N(CC(=O)NC2CCCC2)C(=O)CNC(=O)c2cccs2)cc1
  A: -1.3% | B: -1.7% | C: 2.7% | D: -3.9% | E: -0.2%
3) CCOC(=O)c1c(NC(C)=O)c2c3c(sc2n1Cc1ccc(Cl)cc1)CCCC3
  A: 14.6µM* | B: . | C: -2.0% | D: 1.2% | E: ?
4) O=C(NCc1cccnc1)c1ccc(=O)oc1
  A: -4.7% | B: -1.2% | C: -4.4% | D: -4.2% | E: -22.7%
5) C/C(=N/NC(=O)Cc1cccc2ccccc12)c1cccs1
  A: 16.4µM* | B: 1.4% | C: 4.3% | D: 4.3% | E: ?
6) C/C(=N\NC(=O)c1ccccc1O)c1cccs1
  A: 23.1µM* | B: -12.1% | C: 7.7% | D: -2.2% | E: -12.4%
7) Nc1nc2ncccn2c1-c1ccc(C(F)(F)F)cc1
  A: -18.2% | B: . | C: . | D: . | E: 8.4%
8) COc1ccc(NC(=O)c2sc(Cl)nc2-c2ccccc2)cc1
  A: ? | B: -5.4% | C: 1.2% | D: 12.6% | E: ?
9) CCc1cccc(NC(=O)c2snc3c(=O)[nH]cnc23)c1
  A: -12.5% | B: -0.8% | C: 3.8% | D: -30.3% | E: -7.9%
10) O=C(Nc1cccc(C(F)(F)F)c1)c1sc(Cl)nc1C(F)(F)F
  A: 10.3µM* | B: ? | C: . | D: 24.7% | E: 16.4µM*

Short forms: A = DT40 TDP1 no CPT; B = uPA generation; C = TDP1 inh; D = miR-21 reporter; E = TDP1 cell CPT
11) Cc1cccc(NC(=O)c2sc(Cl)nc2-c2ccccc2)c1
  A: 18.4µM* | B: -9.1% | C: 4.9% | D: -0.8% | E: ?
12) Cc1c(C(=O)Nc2cccc(C(F)(F)F)c2)sc2nc[nH]c(=O)c12
  A: 20.6µM* | B: . | C: 1.1% | D: 0.4% | E: 16.4µM*
13) CCc1cccc(NC(=O)c2sc3nc[nH]c(=O)c3c2C)c1
  A: 20.6µM* | B: . | C: 4.4% | D: -37.5% | E: ?
14) O=C(OCC#CCSc1nnc(-c2cccc3ccccc23)o1)c1ccc(C(F)(F)F)cc1
  A: . | B: . | C: -5.0% | D: . | E: .
15) OC1(c2cccc(C(F)(F)F)c2)CCN(c2ncnc3c2[nH]c2ccccc23)CC1
  A: 20.6µM* | B: -5.5% | C: 3.9% | D: -5.2% | E: 23.1µM*
16) COc1cccc2[nH]c3c(N4CCC(C)CC4)ncnc3c12
  A: 18.4µM* | B: . | C: 8.3% | D: -17.4% | E: 25.9µM*
17) COc1cccc2[nH]c3c(N4CCC5(CC4)OCCO5)ncnc3c12
  A: 23.1µM* | B: -14.5% | C: 4.2% | D: -12.4% | E: ?
18) c1nc(N2CCC3(CC2)OCCO3)c2[nH]cnc2n1
  A: -22.7% | B: -3.1% | C: -5.3% | D: -13.5% | E: -26.5%
19) COc1cccc2[nH]c3c(N4CCc5ccccc5C4)ncnc3c12
  A: 20.6µM* | B: -4.3% | C: . | D: 0.8% | E: ?
20) COc1cccc2[nH]c3c(N4CCN(Cc5ccc6c(c5)OCO6)CC4)ncnc3c12
  A: . | B: . | C: 8.8% | D: -29.4% | E: .

Short forms: A = DT40 TDP1 no CPT; B = uPA generation; C = TDP1 inh; D = miR-21 reporter; E = TDP1 cell CPT
21) Cn1c(Cn2cnc([N+](=O)[O-])n2)nnc1SCC(=O)Nc1ccccc1
  A: -6.7% | B: 1.5% | C: 0.0% | D: -1.5% | E: 5.3%
22) c1ccc2c(c1)CCN(c1ncnc3c1[nH]c1ccccc13)C2
  A: 4.61µM* | B: -11.2% | C: 5.5% | D: ? | E: 4.61µM*
23) c1ccc(Cn2nnc3c(N4CCc5ccccc5C4)ncnc32)cc1
  A: ? | B: 0.6% | C: -1.1% | D: 0.5% | E: -12.2%
24) c1ccc2c(c1)[nH]c1c(N3CCC4(CC3)OCCO4)ncnc12
  A: 7.31µM* | B: -12.8% | C: 3.4% | D: 17.8% | E: 16.4µM*
25) CN(C)CCCNc1nc2cc(-c3ccc(C(=O)N4CCN(C)CC4)cc3)sc2c(=O)n1C
  A: ? | B: . | C: . | D: . | E: -1.3%
26) COc1cccc(CNc2nc3cc(-c4ccc(C(=O)N5CCN(C)CC5)cc4)sc3c(=O)n2C)c1
  A: ? | B: . | C: . | D: . | E: 20.6µM*
27) C=CCNc1nc2cc(-c3ccc(C(=O)N4CCOCC4)cc3)sc2c(=O)n1C
  A: ? | B: . | C: . | D: . | E: 16.4µM*
28) Cc1ccc(C)c(S(=O)(=O)NCc2cccnc2)c1
  A: 3.8% | B: 0.4% | C: 0.0% | D: -8.4% | E: -3.6%
29) COc1cc(S(=O)(=O)NCc2ccncc2)c(OC)cc1Br
  A: 13µM* | B: -0.9% | C: 3.8% | D: 5.2% | E: ?
30) COc1cc(S(=O)(=O)NCc2cccnc2)c(OC)cc1Br
  A: 9.3% | B: . | C: 5.8% | D: 0.1% | E: 5.5%

Short forms: A = DT40 TDP1 no CPT; B = uPA generation; C = TDP1 inh; D = miR-21 reporter; E = TDP1 cell CPT
31) Cc1cc(S(=O)(=O)NCc2ccncc2)c(C)cc1Br
  A: 5.8µM* | B: ? | C: 1.5% | D: 13.0% | E: 8.2µM*
32) Cc1ccc(C)c(S(=O)(=O)NCc2ccncc2)c1
  A: 20.6µM* | B: -1.8% | C: 2.0% | D: 4.5% | E: ?
33) COc1cc(CCC(=O)Nc2cc(Cl)ccc2N2CCN(C)CC2)cc(OC)c1OC
  A: -7.3% | B: -1.7% | C: 3.4% | D: -0.1% | E: 2.5%
34) Cc1cccc(-n2c(CCc3ccccc3)nnc2SCC(=O)c2ccccc2)c1
  A: 9.2µM* | B: -3.4% | C: 8.1% | D: 1.1% | E: 9.2µM*
35) Cc1ccc(-n2c(CCc3ccccc3)nnc2SCC(=O)NCc2ccccc2)cc1C
  A: 23.1µM* | B: -2.0% | C: 5.6% | D: 6.2% | E: ?
36) O=C1CC2(CCCCCC2)Oc2ccccc21
  A: -24.1% | B: 5.5% | C: . | D: . | E: ?
37) Cc1cc(S(=O)(=O)N2CCCC2)ccc1OCC(=O)N1CCC(C(N)=O)CC1
  A: 4.5% | B: 6.0% | C: 5.1% | D: 1.6% | E: 4.1%
38) O=C(COC(=O)C12CC3CC(CC(O)(C3)C1)C2)Nc1ccc(Cl)c(S(=O)(=O)N2CCOCC2)c1
  A: ? | B: -12.6% | C: 2.0% | D: . | E: 29.1µM*
39) COc1ccc(NC(=O)COC(=O)C23CC4CC(CC(NC(C)=O)(C4)C2)C3)cc1S(=O)(=O)N1CCOCC1
  A: 16.4µM* | B: -1.2% | C: 0.7% | D: . | E: 25.9µM*
40) COc1cc(S(=O)(=O)N2CCOCC2)ccc1NC(=O)COC(=O)CC12CC3CC(CC(C3)C1)C2
  A: 18.4µM* | B: -4.7% | C: 4.7% | D: -5.6% | E: ?

Short forms: A = DT40 TDP1 no CPT; B = uPA generation; C = TDP1 inh; D = miR-21 reporter; E = TDP1 cell CPT
41) COc1ccc(NC(=O)COC(=O)C23CC4CC(CC(O)(C4)C2)C3)cc1Cl
  A: ? | B: -1.5% | C: 0.4% | D: . | E: ?
42) Cc1cccc(C)c1Nc1nnc(SCC(=O)c2ccc3c(c2)NC(=O)CO3)s1
  A: -5.8% | B: 6.1% | C: 3.2% | D: -1.8% | E: -2.9%
43) COc1ccc(CCNC(=O)CCCOc2cc(=O)n(C)c3ccccc23)cc1OC
  A: -23.2% | B: -3.2% | C: 0.0% | D: 0.0% | E: -5.4%
44) COc1ccc(NC(=O)C/C(C)=N/NC(=O)COc2ccc(OC)cc2)cc1
  A: 13.3% | B: 2.8% | C: 9.2% | D: -4.6% | E: 4.6%
45) CCOC(=O)N1CCN(C(=O)CCS(=O)(=O)c2cc3c(cc2Cl)NC(=O)CO3)CC1
  A: -3.5% | B: 3.9% | C: . | D: -2.2% | E: -24.2%
46) CSc1ncc(C(=O)Nc2ccc(F)cc2F)c(-c2ccccc2)n1
  A: -18.7% | B: . | C: 5.0% | D: -5.0% | E: -3.0%
47) CSc1ncc(C(=O)NCc2ccc(F)cc2)c(-c2ccccc2)n1
  A: + | B: . | C: 2.5% | D: -0.2% | E: -13.0%
48) COc1ccccc1CNC(=O)c1cnc(SC)nc1C
  A: 14.6µM* | B: . | C: 0.0% | D: 0.0% | E: 23.1µM*
49) COc1ccccc1CNC(=O)CSc1ccc(C)cc1
  A: ? | B: -0.8% | C: 2.7% | D: -24.4% | E: ?
50) COc1ccccc1CNC(=O)C(C)Sc1ccc(C)cc1 (stereo not drawn)
  A: 25.9µM* | B: 1.7% | C: 0.0% | D: -4.1% | E: -3.2%
51) O=S(=O)(c1ccccc1C(F)(F)F)N1C=CC(C(F)(F)F)=NCC1
  A: -7.6% | B: 7.7% | C: 0.0% | D: -1.1% | E: -3.2%
52) CC(=O)Nc1nnc(/C=C/c2cccc([N+](=O)[O-])c2)s1
  A: 0.5% | B: -1.9% | C: . | D: 0.7% | E: -1.6%

Screening results deposited in PubChem BioAssay by National Center for Advancing Translational Sciences (NCATS).
